Each substance was assayed against T1, full-length B-Catenin (Uniprot ID P35222) (Homo sapiens, UniProt P35222). Settings: competition fluorescence polarization; read-out: beta-Catenin FP IC50.
T1 construct: 10 nM full-length B-Catenin (Uniprot ID P35222)
Type: binding

Amino acid sequences for entries named in this document (tags omitted).
UniProt P35222, whole entry: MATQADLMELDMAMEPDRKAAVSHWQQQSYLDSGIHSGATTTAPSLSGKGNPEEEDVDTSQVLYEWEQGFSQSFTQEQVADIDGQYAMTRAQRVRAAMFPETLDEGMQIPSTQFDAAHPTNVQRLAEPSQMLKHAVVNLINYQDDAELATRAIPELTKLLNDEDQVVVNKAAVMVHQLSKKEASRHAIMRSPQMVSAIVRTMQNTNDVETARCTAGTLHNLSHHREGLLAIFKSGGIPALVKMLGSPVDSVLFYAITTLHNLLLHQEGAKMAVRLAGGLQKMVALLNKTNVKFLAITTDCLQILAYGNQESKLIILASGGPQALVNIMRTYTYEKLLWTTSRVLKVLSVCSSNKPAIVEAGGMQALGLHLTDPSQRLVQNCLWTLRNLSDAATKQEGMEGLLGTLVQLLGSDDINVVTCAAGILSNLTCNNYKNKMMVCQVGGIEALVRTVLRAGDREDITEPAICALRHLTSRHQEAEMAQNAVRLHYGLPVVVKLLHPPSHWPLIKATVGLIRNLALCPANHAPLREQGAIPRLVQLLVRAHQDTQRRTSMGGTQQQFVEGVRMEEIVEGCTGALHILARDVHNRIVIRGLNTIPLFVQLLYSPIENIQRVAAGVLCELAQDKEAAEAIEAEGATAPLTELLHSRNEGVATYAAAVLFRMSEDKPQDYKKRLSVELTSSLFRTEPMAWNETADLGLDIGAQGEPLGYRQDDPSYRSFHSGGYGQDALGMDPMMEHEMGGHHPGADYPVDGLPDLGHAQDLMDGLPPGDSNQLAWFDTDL

| Substance | IC50 [nM] |
| --- | --- |
| Ac-PL3-Asp-DipA-B5-Asp-3COOHF-Ala-Ala-Phe-Lys*3-PyrS2-3Thi-34ClF-GlnR*3-[mPEG37]-Lys-NH2 [I-1702] | < 50 |
| Ac-PL3-Asp-DipA-B5-Asp-3COOHF-Ala-Ala-Phe-Lys*3-PyrS2-Phe-BztA-GlnR*3-NH2 [I-1841] | < 50 |
| Ac-PL3-Asp-DipA-B5-Asp-3COOHF-Ala-Ala-Phe-Lys*3-PyrS2-Phe-BztA-GlnR*3-Pro-NH2 [I-1843] | < 50 |
| Ac-PL3-Asp-DipA-B5-Asp-3COOHF-Ala-Ala-Phe-Lys*3-PyrS2-Phe-BztA-GlnR*3-Ser-NH2 [I-1846] | < 50 |
| Ac-PL3-Asp-DipA-B5-Asp-3COOHF-Ala-Ala-Phe-Lys*3-PyrS2-Phe-BztA-GlnR*3-Val-NH2 [I-1847] | < 50 |
| Ac-PL3-Asp-DipA-B5-Asp-3COOHF-Ala-Ala-Phe-Lys*3-PyrS2-Phe-BztA-GlnR*3-dPro-NH2 [I-1844] | < 50 |
| Ac-PL3-Asp-DipA-B5-Asp-3COOHF-Ala-Ala-Phe-Lys*3-PyrS2-Phe-BztA-GlnR*3-dVal-NH2 [I-1848] | < 50 |
| Ac-PL3-Asp-DipA-B5-Asp-3COOHF-Cbg-Ala-Phe-Lys*3-PyrS2-3Thi-BztA-GlnR*3-Ala-NH2 [I-858] | < 50 |
| Ac-PL3-Asp-DipA-B5-Asp-3COOHF-CyLeu-Ala-Phe-Lys*3-PyrS2-2F3MeF-34ClF-GlnR*3-NH2 [I-1640] | > 1000 |
| Ac-PL3-Asp-DipA-B5-Asp-3COOHF-CyLeu-Ala-Phe-Lys*3-PyrS2-2F3MeF-34ClF-GlnR*3-Phe-NH2 [I-1776] | < 50 |
| Ac-PL3-Asp-DipA-B5-Asp-3COOHF-CyLeu-Ala-Phe-Lys*3-PyrS2-2F3MeF-34ClF-GlnR*3-Pro-NH2 [I-1767] | < 50 |
| Ac-PL3-Asp-DipA-B5-Asp-3COOHF-CyLeu-Ala-Phe-Lys*3-PyrS2-2F3MeF-34ClF-GlnR*3-Ser-NH2 [I-1771] | < 50 |
| Ac-PL3-Asp-DipA-B5-Asp-3COOHF-CyLeu-Ala-Phe-Lys*3-PyrS2-2F3MeF-BztA-GlnR*3-Pro-NH2 [I-1768] | < 50 |
| Ac-PL3-Asp-DipA-B5-Asp-3COOHF-CyLeu-Ala-Phe-Lys*3-PyrS2-3Thi-34ClF-GlnR*3-Ala-NH2 [I-1118] | < 50 |
| Ac-PL3-Asp-DipA-B5-Asp-3COOHF-CyLeu-Ala-Phe-Lys*3-PyrS2-3Thi-34ClF-GlnR*3-NH2 [I-1117] | < 50 |
| Ac-PL3-Asp-DipA-B5-Asp-3COOHF-CyLeu-Ala-Phe-Lys*3-PyrS2-3Thi-34ClF-GlnR*3-Ser-NH2 [I-1119] | < 50 |
| Ac-PL3-Asp-DipA-B5-Asp-3COOHF-CyhLeu-Ala-Phe-Lys*3-PyrS2-3Thi-BztA-GlnR*3-Ala-NH2 [I-851] | < 50 |
| Ac-PL3-Asp-DipA-B5-Asp-3COOHF-Gly-Ala-Phe-Lys*3-PyrS2-3Thi-BztA-GlnR*3-Ala-NH2 [I-1000] | < 50 |
| Ac-PL3-Asp-DipA-B5-Asp-3COOHF-Leu-Ala-Phe-Lys*3-PyrS2-Phe-BztA-GlnR*3-NH2 [I-1850] | < 50 |
| Ac-PL3-Asp-DipA-B5-Asp-3COOHF-Leu-Ala-Phe-Lys*3-PyrS2-Phe-BztA-GlnR*3-dPro-NH2 [I-1854] | < 50 |
| Ac-PL3-Asp-DipA-B5-Asp-3COOHF-Phe-Ala-Phe-Lys*3-PyrS2-3Thi-34ClF-GlnR*3-Ala-NH2 [I-1115] | < 50 |
| Ac-PL3-Asp-DipA-B5-Asp-3COOHF-Phe-Ala-Phe-Lys*3-PyrS2-3Thi-34ClF-GlnR*3-NH2 [I-1114] | < 50 |
| Ac-PL3-Asp-DipA-B5-Asp-3COOHF-Phe-Ala-Phe-Lys*3-PyrS2-3Thi-34ClF-GlnR*3-Ser-NH2 [I-1116] | < 50 |
| Ac-PL3-Asp-DipA-B5-Asp-3COOHF-Thr-Ala-Phe-Lys*3-PyrS2-3Thi-34ClF-GlnR*3-NH2 [I-1635] | > 1000 |

| Substance | IC50 [nM] |
| --- | --- |
| Ac-PL3-Asp-DipA-B5-Asp-3COOHF-Thr-Ala-Phe-Lys*3-PyrS2-Phe-BztA-GlnR*3-NH2 [I-1853] | < 50 |
| Ac-PL3-Asp-DipA-B5-Asp-3COOHF-Thr-Ala-Phe-Lys*3-PyrS2-Phe-BztA-GlnR*3-dPro-NH2 [I-1856] | < 50 |
| Ac-PL3-Asp-DipA-B5-Asp-3COOHF-Val-Ala-Phe-Lys*3-PyrS2-Phe-BztA-GlnR*3-NH2 [I-1852] | < 50 |
| Ac-PL3-Asp-DipA-B5-Asp-3COOHF-Val-Ala-Phe-Lys*3-PyrS2-Phe-BztA-GlnR*3-dPro-NH2 [I-1855] | < 50 |
| Ac-PL3-Asp-DipA-B5-Asp-3COOHF-dAla-Ala-Phe-Lys*3-PyrS2-3Thi-BztA-GlnR*3-Ala-NH2 [I-1002] | < 50 |
| Ac-PL3-Asp-DipA-B5-Asp-3COOHF-nLeu-Ala-Phe-Lys*3-PyrS2-3Thi-34ClF-GlnR*3-NH2 [I-1634] | < 50 |
| Ac-PL3-Asp-DipA-B5-Hse-3COOHF-nLeu-Ala-Phe-Lys*3-PyrS2-3Thi-BztA-GlnR*3-NH2 [I-1686] | 50 to 200 |
| Ac-PL3-Asp-DipA-B5-Ser-3COOHF-nLeu-Ala-Phe-Lys*3-PyrS2-3Thi-BztA-GlnR*3-NH2 [I-1683] | 200 to 750 |
| Ac-PL3-Asp-DipA-B5-Thr-3COOHF-nLeu-Ala-Phe-Lys*3-PyrS2-3Thi-BztA-GlnR*3-NH2 [I-1684] | 200 to 750 |
| Ac-PL3-Asp-DipA-B5-aThr-3COOHF-CyLeu-Ala-Phe-Lys*3-PyrS2-3Thi-34ClF-GlnR*3-NH2 [I-1633] | 50 to 200 |
| Ac-PL3-Asp-DipA-B5-aThr-3COOHF-nLeu-Ala-Phe-Lys*3-PyrS2-3Thi-34ClF-GlnR*3-NH2 [I-1639] | 50 to 200 |
| Ac-PL3-Asp-DipA-B5-aThr-3COOHF-nLeu-Ala-Phe-Lys*3-PyrS2-3Thi-BztA-GlnR*3-NH2 [I-1685] | 200 to 750 |
| Ac-PL3-Asp-Ile-B5-Asp-3COOHF-Aib-Ala-Phe-1MeK*3-PyrS2-Phe-34ClF-GlnR*3-NH2 [I-1369] | < 50 |
| Ac-PL3-Asp-Ile-B5-Asp-3COOHF-Aib-Ala-Phe-1MeK*3-PyrS2-Phe-34ClF-dGlnR*3-Ala-NH2 [I-1762] | < 50 |
| Ac-PL3-Asp-Ile-B5-Asp-3COOHF-Aib-Ala-Phe-1MeK*3-PyrS2-Phe-34ClF-dGlnR*3-NH2 [I-1760] | < 50 |
| Ac-PL3-Asp-Ile-B5-Asp-3COOHF-Aib-Ala-Phe-1MeK*3-PyrS2-Phe-34ClF-dGlnR*3-NHMe [I-1761] | < 50 |
| Ac-PL3-Asp-Ile-B5-Asp-3COOHF-Aib-Ala-Phe-1MeK*3-PyrS2-Phe-34ClF-hGlnR*3-NH2 [I-1373] | < 50 |
| Ac-PL3-Asp-Ile-B5-Asp-3COOHF-Aib-Ala-Phe-AsnMeEDA*3-PyrS2-Phe-34ClF-GlnR*3-NH2 [I-1417] | < 50 |
| Ac-PL3-Asp-Ile-B5-Asp-3COOHF-Aib-Ala-Phe-AsnR3APyr*3-PyrS2-Phe-34ClF-AsnR*3-NH2 [I-1420] | < 50 |
| Ac-PL3-Asp-Ile-B5-Asp-3COOHF-Aib-Ala-Phe-AsnR3APyr*3-PyrS2-Phe-34ClF-GlnR*3-NH2 [I-1421] | < 50 |
| Ac-PL3-Asp-Ile-B5-Asp-3COOHF-Aib-Ala-Phe-AsnR*3-PyrS2-Phe-34ClF-AsnS3APyr*3-NH2 [I-1422] | < 50 |
| Ac-PL3-Asp-Ile-B5-Asp-3COOHF-Aib-Ala-Phe-AsnS3APyr*3-PyrS2-Phe-34ClF-AsnR*3-NH2 [I-1424] | < 50 |
| Ac-PL3-Asp-Ile-B5-Asp-3COOHF-Aib-Ala-Phe-GlnR3APyr*3-PyrS2-Phe-34ClF-GlnR*3-NH2 [I-1381] | < 50 |

From patent publication US20240360179A1, “STAPLED PEPTIDES AND METHODS THEREOF” (FOG PHARMACEUTICALS, INC., priority 2021, published 2024)
